Laboratory results: US11396531B2, “Antimicrobial peptides comprising epsilon lysine residues” (priority 2016, dated 2022)
In brackets after ≈: the same amount, converted by molar mass.

Columns and labels:
S. epidermidis 12228 = conditions: S. epidermidis 12228, Table 5
Method: (§1) MIC of cationic polymers and polypeptide were tested in accordance with the Clinical and Laboratory Standards Institute (CLSI) guidelines against a panel of antibiotic-susceptible/-resistant bacteria, yeasts and fungal strains. Bacterial and yeast strains were cultured on tryptic soy agar (TSA) and Sabaroud dextrose agar (SDA) plates (Neogen Corporation, MI, USA) overnight respectively. Inocula in Mueller-Hinton broth (MHB) for bacteria and SD broth for C. albicans (Beckton Dickinson, MD, USA) were prepared at 0.5 McFarland. The suspensions were then diluted to a final concentration of 10^5 CFU/ml in a 96-well microtitre plate (SPL Life Sciences Co., Ltd, Korea). […] The antimicrobial activities were compared with topical antiseptic agents, BAK and CHX. A similar protocol was used to determine the MIC of εPL against antibiotic-resistant pathogens. MIC of the polymers and polypeptides against Fusarium strains was determined in full strength RPMI-1640 buffer. Fungal spores were recovered from a 5-day old culture on a potato dextrose agar and diluted to a concentration of 10^5 spores/ml in 0.9% saline solution. A further 50-fold dilution was done in RPMI-1640 buffer and 100 μl of the inoculum was added to 96 well plates containing an equal volume of test peptides at 2-fold serial dilutions. 200 μl of inoculum without any additives and buffer alone served as positive and negative controls, respectively. The plate was then incubated at 30° C. for 48 h. The absorbance value was measured at 600 nm as before and the lowest concentration of the peptide which inhibited 90% growth was reported. All MIC determinations were performed in duplicates.
(§2) MICs of polymers/antibiotics were determined using the microdilution method in 96 well microtitre plates (SPL Life Sciences Co., Ltd, Korea), following the guidelines of Clinical and Laboratory Standards Institute (CLSI) document M100-S18. Briefly, polymers (1-512 μg/ml) or antibiotics were dissolved in appropriate media (Mueller Hinton broth, MHB for bacteria; Sabaroud's Dextrose (SD) broth for yeasts and RPMI buffer for Fusarium strains) and 100 μl of this was then mixed with an equal volume of microbial inoculum (OD600=˜0.08) in the same media and shaken in a closed incubator.

B. subtilis ATCC 6633 = conditions: B. subtilis ATCC 6633, Table 5
Method: as §1, §2

P. aeruginosa = type: cell-based, Pseudomonas aeruginosa; conditions: Table 4, range over 5 strains
Method: as §1, with “Korea). Polymers and polypeptides were added to the inoculum in 2-fold serial dilutions to give a range of concentrations from 2-1024 μg/ml.” for “Korea).”
as §2

[1] = tested on: primary human dermal fibroblasts (HDFs); test: MTS cytotoxicity assay; conditions: for Peptide concentration required to impart cytotoxic effect: MTS assay, primary human fibroblasts; for Cytotoxicity for HDFs: Table 7
Method: MTS ((3-(4,5-dimethylthiazol-2-yl)-5-(3-carboxymethoxyphenyl)-2-(4-sulfophenyl)-2H-tetrazolium)) assay and high content analysis (HCA) were performed to elucidate the effect of various polymers on metabolic activity and morphological parameters of cultured human dermal fibroblasts (hDF), respectively as described previously. The antineoplastic agent, nocodazole (5 μg/ml), served as the […] control whereas cells treated with PBS served as positive control. The average values from three independent triplicate experiments are reported. Cells were cultured in 96-well plates and scanned (16 randomly selected fields/well) using an automated microscope IN Cell Analyzer 2200 (GE Healthcare). The multi-parametric cytotoxicity bio-application module of the IN Cell Investigator software (GE Healthcare) was used in quantitative estimations and morphotypic analysis of acquired images, which were automatically converted into color-coded heatmaps using Spotrfire® software.
Human dermal fibroblast cells were seeded in 96-well plates (2×10^3 cells/well) and incubated for 24 h at 37° C. and 5% CO2. Cells were then treated with various concentrations of polymers or peptides (62.5 μg/ml-1 mg/ml. At the end of the treatment period (after 24 h), 20 or 50 μl of MTS tetrazolium solution was added into 96-well or 12-well plates and further incubated for 2 h at 37° C. Subsequently, the absorbance was measured at 490 nm using a microplate reader (Infinite M200 Pro, Tecan, Switzerland) and the relative cell viability was calculated. Each treatment was performed in two triplicates and reported.
The cytotoxicity of peptides and polymers were determined using CellTier 96® Aqueous One solution cell proliferation assay kit according to the manufacturer's instruction (Promega Corporation, Madison, Wis.). This assay evaluates mitochondrial function by measuring ability of viable cells to reduce MTS ((3-(4,5-dimethylthiazol-2-yl)-5-(3-carboxymethoxyphenyl)-2-(4-sulfophenyl)-2H-tetrazolium)) into a quantifiable […] formazan product. HDFs were seeded in 96-well plates (2×10^3 cells/well) and incubated for 24 h at 37° C. and 5% CO2. Cells were then treated with a concentrated stock solution of polymers (final concentration 62.5-2000 μg/ml in the well) or peptides (final concentration 4-1000 μg/ml in the well). After 24 h, 20 μl of MTS tetrazolium solution was added into 96-well well plates and further incubated for 2 h at 37° C. Subsequently, the absorbance was measured at 490 nm using a microplate reader (Infinite M200 Pro, Tecan, Switzerland) and the relative cell viability was calculated relative to untreated control (10 mM PBS, pH 7.0). Each treatment was performed in two triplicates and reported.

[2] = tested on: Carbapenam-resistant Enterobacter strains (CRE); conditions: CRE (n = 19), 50% of strains susceptible, Table 7
Method: as §1, §2

A. baumannii = conditions: A. baumanii (n = 10), 90% of strains susceptible, Table 7
Method: as §1, §2

[3] = tested on: Vancomycin-resistant Enterococcus (VRE); conditions: VRE (n = 21), 90% of strains susceptible, Table 7
Method: as §1, §2

S. aureus or MRSA = type: cell-based, Staphylococcus aureus; conditions: Table 4, range over 5 strains
Method: as §1, with “Korea). Polymers and polypeptides were added to the inoculum in 2-fold serial dilutions to give a range of concentrations from 2-1024 μg/ml.” for “Korea).”
as §2

[4] = Calcein dye leakage from mammalian model LUVs; conditions: peptide:lipid ratio 0.0625
Method: To obtain an insight into the mechanism of membrane discrimination, large unilamellar vesicles (LUVs) which mimic the cytoplasmic membrane of mammalian (PC/Cholesterol) and microbial (PE:PG) cells were used. […] More dramatic results were observed when the experiments were carried out on PC/Cholesterol LUVs.

C. albicans = conditions: Table 4, range over 5 strains
Method: as §1, §2

SMILES | MIC (S. epidermidis 12228) [µg/mL] | MIC (B. subtilis ATCC 6633) [µg/mL] | MIC against P. aeruginosa (n = 5) (P. aeruginosa) [µg/mL] | Peptide concentration required to impart cytotoxic effect [1] [µg/mL] | Cytotoxicity for HDFs [1] [µg/mL] | MIC50 [2] | MIC90 (A. baumannii) | MIC90 [3] | MIC against S. aureus or MRSA (n = 5) (S. aureus or MRSA) [µg/mL] | dye leakage from PC/Cholesterol LUVs [4] [%] | Cytotoxicity (in μg/ml) for HDFs ([1]; Concentration at which complete cytotoxicity was observed in MTS and HCA) [µg/mL] | MIC against C. albicans (n = 5) (C. albicans) [µg/mL]
CC[C@H](C)[C@H](NC(=O)CN)C(=O)NCC(=O)N[C@@H](C)C(=O)N[C@H](C(=O)N[C@@H](CC(C)C)C(=O)N[C@@H](CCCCN)C(=O)N[C@H](C(=O)N[C@@H](CC(C)C)C(=O)N[C@H](C(=O)N[C@H](C(=O)NCC(=O)N[C@@H](CC(C)C)C(=O)N1CCC[C@H]1C(=O)N[C@@H](C)C(=O)N[C@@H](CC(C)C)C(=O)N[C@H](C(=O)N[C@@H](CO)C(=O)N[C@@H](Cc1c[nH]c2ccccc12)C(=O)N[C@H](C(=O)N[C@@H](CCCCN)C(=O)N[C@@H](CCCNC(=N)N)C(=O)N[C@@H](CCCCN)C(=O)N[C@@H](CCCNC(=N)N)C(=O)N[C@@H](CCC(N)=O)C(=O)N[C@@H](CCC(N)=O)C(N)=O)[C@@H](C)CC)[C@@H](C)CC)[C@@H](C)O)[C@@H](C)O)C(C)C)C(C)C [Melittin, reference compound] | 4 (≈ 1.41 µM) | 32 (≈ 11.2 µM) | 4 to 16 |  |  |  |  |  |  |  |  | 
CC[C@H](C)[C@H](NC(=O)[C@H](CO)NC(=O)[C@H](CCCCN)NC(=O)[C@H](CC(C)C)NC(=O)[C@@H](N)CCCCNC(=O)[C@@H](N)CC(C)C)C(=O)N[C@H](C(=O)N[C@@H](CO)C(=O)N[C@@H](Cc1c[nH]c2ccccc12)C(=O)N[C@@H](C)C(=O)N[C@@H](CCCCN)C(=O)N[C@@H](CCCCN)C(=O)N[C@H](C(=O)N[C@@H](CC(C)C)C(N)=O)C(C)C)C(C)C [MB-1, LKLKSIVSWAKKVL] |  |  |  | 250 | 250 | (MIC50 = 32) μg/ml | (MIC90 = 8) μg/ml | (MIC90 = 8) μg/ml |  |  |  | 
CC[C@H](C)[C@H](NC(=O)[C@H](CO)NC(=O)[C@H](CCCCN)NC(=O)[C@H](CC(C)C)NC(=O)[C@H](CCCCN)NC(=O)[C@@H](N)CC(C)C)C(=O)N[C@H](C(=O)N[C@@H](CO)C(=O)N[C@@H](Cc1c[nH]c2ccccc12)C(=O)N[C@@H](C)C(=O)N[C@@H](CCCCN)C(=O)NCCCC[C@H](N)C(=O)N[C@H](C(=O)N[C@@H](CC(C)C)C(N)=O)C(C)C)C(C)C [MB-4, LKLKSIVSWAKKVL] |  |  |  | > 1000 | >1000 | (MIC50 = 64) μg/ml |  | (MIC90 = 128) μg/ml |  |  |  | 
CC[C@H](C)[C@H](NC(=O)[C@H](CO)NC(=O)[C@H](CCCCN)NC(=O)[C@H](CC(C)C)NC(=O)[C@H](CCCCN)NC(=O)[C@@H](N)CC(C)C)C(=O)N[C@H](C(=O)N[C@@H](CO)C(=O)N[C@@H](Cc1c[nH]c2ccccc12)C(=O)N[C@@H](C)C(=O)NCCCC[C@H](N)C(=O)N[C@@H](CCCCN)C(=O)N[C@H](C(=O)N[C@@H](CC(C)C)C(N)=O)C(C)C)C(C)C [MB-3, LKLKSIVSWAKKVL] |  |  |  | 1000 | 1000 | (MIC50 = 64) μg/ml |  | (MIC90 = 128) μg/ml |  |  |  | 
CC[C@H](C)[C@H](NC(=O)CN)C(=O)NCC(=O)N[C@@H](C)C(=O)N[C@H](C(=O)N[C@@H](CC(C)C)C(=O)N[C@@H](CCCCN)C(=O)N[C@H](C(=O)N[C@@H](CC(C)C)C(=O)N[C@H](C(=O)N[C@H](C(=O)NCC(=O)N[C@@H](CC(C)C)C(=O)N1CCC[C@H]1C(=O)N[C@@H](C)C(=O)N[C@@H](CC(C)C)C(=O)N[C@H](C(=O)N[C@@H](CO)C(=O)N[C@@H](Cc1c[nH]c2ccccc12)C(=O)N[C@H](C(=O)N[C@@H](CCCCN)C(=O)N[C@@H](CCCNC(=N)N)C(=O)NCCCC[C@H](N)C(=O)N[C@@H](CCCNC(=N)N)C(=O)N[C@@H](CCC(N)=O)C(=O)N[C@@H](CCC(N)=O)C(N)=O)[C@@H](C)CC)[C@@H](C)CC)[C@@H](C)O)[C@@H](C)O)C(C)C)C(C)C [Peptide 1] |  |  | 4 to 16 |  |  |  |  |  | 4 to 8 | ~70 | 32 | 4 to 8
CC[C@H](C)[C@H](NC(=O)[C@H](CO)NC(=O)[C@@H](N)CCCCNC(=O)[C@H](CC(C)C)NC(=O)[C@H](CCCCN)NC(=O)[C@@H](N)CC(C)C)C(=O)N[C@H](C(=O)N[C@@H](CO)C(=O)N[C@@H](Cc1c[nH]c2ccccc12)C(=O)N[C@@H](C)C(=O)N[C@@H](CCCCN)C(=O)N[C@@H](CCCCN)C(=O)N[C@H](C(=O)N[C@@H](CC(C)C)C(N)=O)C(C)C)C(C)C [MB-2, LKLKSIVSWAKKVL] |  |  |  | 1000 | 1000 | (MIC50 = 64) μg/ml | (MIC90 = 8) μg/ml | (MIC90 = 8) μg/ml |  |  |  | 
